Experimental data as given in ChEMBL document CHEMBL4270654, “Identification of DK419, a potent inhibitor of Wnt/β-catenin signaling and colorectal cancer growth” (Bioorg Med Chem, 2018).

Tests used:
[1] = system: Mus musculus; assay: Apparent clearance in NOD/SCID mouse at 200 mg/kg, po by LC-MS/MS-based non-compartmental extravascular input analysis; assay type: ADME, organism-based; conditions: in vivo
[2] = in vivo; conditions: NOD/SCID, mouse, po, 200 mg/kg

- CL/F [1]: 0.2 L/kg
- half-life [2]: 3.1 h
SMILES: O=C(Nc1ccc([N+](=O)[O-])cc1Cl)c1cc(Cl)ccc1O [NICLOSAMIDE]
